From publication PMC9234963, “Optimizing Shape Complementarity Enables the Discovery of Potent Tricyclic BCL6 Inhibitors” (Journal of Medicinal Chemistry, 2022) come the findings set out here.

For this assay, the target named is human BCL6 BTB domain (Homo sapiens, UniProt P41182).

Take `Cn1c(=O)c2c(c3cc(Nc4ccnc(Cl)c4C#N)ccc31)N[C@@H](C1CC1)CCO2` [Compound 12a, (R)-2-Chloro-4-((2-cyclopropyl-7-methyl-6-oxo-1,2,3,4,6,7-hexahydro-[1,4]oxazepino[2,3-c]quinolin-10-yl)amino)nicotinonitrile]: for the setting “mean of replicates”, the “BCL6 TR-FRET mean pIC50” value amounted to 7.41. The half-maximal inhibitory concentration (IC50) (read-out: BCL6 TR-FRET IC50, geometric mean of replicates) is 39 nM.

The term IC50 denotes the point on the concentration scale where inhibition reaches its midpoint.
